Literature values, collected in US12291505B2, “Methods for the synthesis of deuterated dextromethorphan” (AVANIR PHARMACEUTICALS, INC., priority 2016, dated 2025).

Conditions: co-administered with dextromethorphan

CNCCC(Oc1ccc(C(F)(F)F)cc1)c1ccccc1 (stereo not shown) [fluoxetine]
effect on dextromethorphan in the blood: effective in increasing dextromethorphan concentrations in the blood of some people
